The results in this text go back to ChEMBL document CHEMBL1125523, “Novel indolodioxanes with antihypertensive effects: potent ligands for the 5-HT1A receptor” (J Med Chem, 1992).

Chains of the proteins cited; added tags and fusions are not shown.
UniProt P33533, whole entry: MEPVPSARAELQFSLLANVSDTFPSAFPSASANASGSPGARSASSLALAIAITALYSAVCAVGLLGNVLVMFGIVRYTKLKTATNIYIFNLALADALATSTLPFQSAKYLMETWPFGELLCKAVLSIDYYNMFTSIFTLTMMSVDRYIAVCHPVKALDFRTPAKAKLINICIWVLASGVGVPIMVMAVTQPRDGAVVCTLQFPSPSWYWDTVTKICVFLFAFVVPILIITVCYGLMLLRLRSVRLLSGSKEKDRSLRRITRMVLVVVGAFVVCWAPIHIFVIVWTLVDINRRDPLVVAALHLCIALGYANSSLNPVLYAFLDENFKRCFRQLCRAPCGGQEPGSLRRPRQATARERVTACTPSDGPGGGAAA
UniProt P34975, whole entry: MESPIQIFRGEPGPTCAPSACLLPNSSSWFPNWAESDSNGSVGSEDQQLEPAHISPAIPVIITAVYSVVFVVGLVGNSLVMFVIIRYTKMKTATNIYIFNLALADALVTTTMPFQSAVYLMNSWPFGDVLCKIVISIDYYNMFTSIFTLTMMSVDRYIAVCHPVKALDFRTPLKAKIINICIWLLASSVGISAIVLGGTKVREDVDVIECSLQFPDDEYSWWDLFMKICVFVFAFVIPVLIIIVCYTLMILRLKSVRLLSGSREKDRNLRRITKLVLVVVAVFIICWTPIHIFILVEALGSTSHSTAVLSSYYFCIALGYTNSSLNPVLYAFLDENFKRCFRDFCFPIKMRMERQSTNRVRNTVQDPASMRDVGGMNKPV
UniProt P33535, whole entry: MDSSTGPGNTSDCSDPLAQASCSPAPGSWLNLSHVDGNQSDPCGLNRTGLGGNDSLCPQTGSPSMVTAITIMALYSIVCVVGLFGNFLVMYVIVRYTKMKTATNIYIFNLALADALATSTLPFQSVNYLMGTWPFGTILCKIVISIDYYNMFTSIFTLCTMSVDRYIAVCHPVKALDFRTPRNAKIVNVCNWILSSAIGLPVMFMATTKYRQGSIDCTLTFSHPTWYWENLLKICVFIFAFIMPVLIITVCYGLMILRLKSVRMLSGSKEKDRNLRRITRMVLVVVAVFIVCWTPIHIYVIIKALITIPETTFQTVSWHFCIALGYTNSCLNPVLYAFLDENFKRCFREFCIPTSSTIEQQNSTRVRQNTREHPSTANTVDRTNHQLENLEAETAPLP

Assay [1] concerns the target T1, Opioid receptor (Rattus norvegicus, UniProt P33533+P34975+P33535). Briefly: Compound was evaluated for the binding affinity towards opioid receptor from rat whole brain using [3H]etorpine (33.2 Ci/mmol,0.2nanoM)as radioligand.
Assay [2] addresses T1, Opioid receptor. Briefly: Binding affinity towards opioid receptor from rat whole brain using [3H]etorpine as radioligand.

The Ki is a dissociation constant, usually derived from enzyme kinetics or from competition with a known ligand. `CCCCOC(=O)c1cc2c3c(ccc2[nH]1)OCC(CN1CCC2(CC1)C(=O)NCN2c1ccccc1)O3` (stereo not given): on Opioid receptor [1], the Ki turned out to be 3.1 nM.

In turn, `N#Cc1cc2c3c(ccc2[nH]1)OCC(CN1CCC2(CC1)C(=O)NCN2c1ccccc1)O3` (stereo not given) registered a Ki at Opioid receptor [1] of 0.1 nM.

`COC(=O)c1cc2c3c(ccc2[nH]1)OCC(CN1CCC2(CC1)C(=O)NCN2c1ccccc1)O3` (stereo not given): on Opioid receptor [2], the Ki is 6.5 nM.

For the compound `NC(=O)c1cc2c3c(ccc2[nH]1)OCC(CN1CCC2(CC1)C(=O)NCN2c1ccccc1)O3` (stereo not given), at Opioid receptor [1], the inhibition constant Ki is 0.6 nM.

Consider `O=C1NCN(c2ccccc2)C12CCN(CC1COc3ccc4[nH]c(CO)cc4c3O1)CC2` (stereo not given), for which, at Opioid receptor [1], affinity was put at a Ki of 3.3 nM.
